# Earlier results, collected in PubChem BioAssay AID1811 (Shanghai Institute of Organic Chemistry, 2009).
# Some of the results follow. Activity calls are given as the source filed them. Where no limit is named, active and inactive come without a cut-off here.
# Test system: trypsinogen
# Assay: PubChem AID 1811
# Settings: PDB complex binding affinities from literature
compound,measurement,value
NCCCCc1ccccc1,outcome,active
